# According to article PMC10908090:
# B1: STING: T229A (protein)
# parent chain: MPHSSLHPSIPCPRGHGAQKAALVLLSACLVTLWGLGEPPEHTLRYLVLHLASLQLGLLLNGVCSLAEELRHIHSRYRGSYWRTVRACLGCPLRRGALLLLSIYFYYSLPNAVGPPFTWMLALLGLSQALNILLGLKGLAPAEISAVCEKGNFNVAHGLAWSYYIGYLRLILPELQARIRTYNQHYNNLLRGAVSQRLYILLPLDCGVPDNLSMADPNIRFLDKLPQQTGDHAGIKDRVYSNSIYELLENGQRAGTCVLEYATPLQTLFAMSQYSQAGFSREDRLEQAKLFCRTLEDILADAPESQNNCRLIAYQEPADDSSFSLSQEVLRHLRQEEKEEVTVGSLKTSAVPSTSTMSQEPELLISGMEKPLPLRTDFS
# How the values were obtained:
# Details in all cases: glycan lost; control: WT STING
# [1] = STING IP, K63-Ub immunoblot, HEK-293T
# [2] = native gel electrophoresis, cGAMP-induced
# [3] = STING IP, K27-Ub immunoblot, HEK-293T
# [4] = immunofluorescence with calnexin/GM130, ISD stimulation
protein,measurement,setting,value
B1,other: K63-linked ubiquitination,[1],decreases
same,oligomerisation,[2],abolishes
same,other: K27-linked ubiquitination,[3],no change
same,localisation_or_trafficking,[4],abolishes
